Reference: ChEMBL document CHEMBL2163333, “Novel imidazol-1-ylmethyl substituted 1,2,5,6-tetrahydropyrrolo[3,2,1-ij]quinolin-4-ones as potent and selective CYP11B1 inhibitors for the treatment of Cushing's syndrome” (J Med Chem, 2012)

Legend:
Homo sapiens [1] = species: Homo sapiens; assay: Selectivity ratio of IC50 for human placental CYP19 to IC50 for human CYP11B1
Homo sapiens [2] = species: Homo sapiens; assay: Selectivity ratio of IC50 for human CYP17 to IC50 for human CYP11B1
Homo sapiens [3] = species: Homo sapiens; assay: Selectivity ratio of IC50 for human CYP11B2 to IC50 for human CYP11B1

O=C1CCc2cc(C(C3CC3)n3ccnc3)cc3c2N1CC3 (racemic)
Ratio IC50 (Homo sapiens [1]): 104
Ratio IC50 (Homo sapiens [2]): 1310
Ratio IC50 (Homo sapiens [3]): 11
